Biological target: T1, human amylin receptor (amylin 3(a) receptor: human calcitonin receptor + RAMP-3) (Homo sapiens, UniProt O60896+P30988)
T1 construct: expressed in transfected cells
T1 sequence (P30988 25-474): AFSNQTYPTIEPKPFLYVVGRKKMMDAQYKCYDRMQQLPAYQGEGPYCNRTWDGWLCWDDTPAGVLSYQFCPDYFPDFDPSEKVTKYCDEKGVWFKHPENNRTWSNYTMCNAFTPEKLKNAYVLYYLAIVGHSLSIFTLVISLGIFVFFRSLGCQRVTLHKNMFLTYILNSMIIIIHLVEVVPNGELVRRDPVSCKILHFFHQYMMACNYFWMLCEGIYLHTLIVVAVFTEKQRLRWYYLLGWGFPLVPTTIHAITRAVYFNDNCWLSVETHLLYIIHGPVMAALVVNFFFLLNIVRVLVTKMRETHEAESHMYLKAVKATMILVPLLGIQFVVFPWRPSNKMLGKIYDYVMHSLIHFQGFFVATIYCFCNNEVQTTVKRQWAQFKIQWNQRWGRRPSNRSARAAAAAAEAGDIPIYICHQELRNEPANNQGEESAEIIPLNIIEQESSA
T1 sequence (O60896 24-148 partner): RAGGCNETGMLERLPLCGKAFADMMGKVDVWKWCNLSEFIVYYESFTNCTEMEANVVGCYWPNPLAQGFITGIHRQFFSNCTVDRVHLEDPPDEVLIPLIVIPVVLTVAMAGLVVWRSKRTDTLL
Assay: Assay (II)a functional assay, human amylin receptor (CRE luciferase, BHK cells)
Format: cell-based
Settings: Table 6; human functional selectivity (hCTR EC50 / hAmylin-R EC50)

Ratio hCT/hAmylin funct.: 4.1
Compound: CC[C@H](C)[C@H](NC(=O)[C@H](C)NC(=O)CNC(=O)[C@H](Cc1ccccc1)NC(=O)[C@H](CC(N)=O)NC(=O)[C@@H]1CCCN1C(=O)[C@H](CO)NC(=O)[C@H](CO)NC(=O)[C@H](Cc1c[nH]cn1)NC(=O)[C@H](CCCNC(=N)N)NC(=O)[C@H](CC(C)C)NC(=O)[C@H](Cc1ccccc1)NC(=O)[C@H](CC(N)=O)NC(=O)[C@H](C)NC(=O)[C@H](CC(C)C)NC(=O)[C@H](CCCNC(=N)N)NC(=O)[C@H](CCC(N)=O)NC(=O)[C@@H](NC(=O)[C@H](C)NC(=O)[C@@H]1CSSC[C@H](NC(=O)[C@H](CCCCN)NC(=O)CC[C@H](NC(=O)CCCCCCCCCCCCCCCCCCC(=O)O)C(=O)O)C(=O)N[C@@H](CC(N)=O)C(=O)N[C@@H]([C@@H](C)O)C(=O)N[C@@H](C)C(=O)N[C@@H]([C@@H](C)O)C(=O)N1)[C@@H](C)O)C(=O)N1CCC[C@H]1C(=O)N[C@@H](CO)C(=O)N[C@@H](CO)C(=O)N[C@H](C(=O)N[C@@H](CC(N)=O)C(=O)N[C@H](C(=O)NCC(=O)N[C@@H](CO)C(=O)N[C@@H](CC(N)=O)C(=O)N[C@H](C(=O)N[C@@H](Cc1ccc(O)cc1)C(N)=O)[C@@H](C)O)C(C)C)[C@@H](C)O [Example 21]

— US8575091B1, “Amylin analogues and pharmaceutical compositions thereof” (Novo Nordisk A/S, priority 2012, dated 2013)
